## Membrane permeability of cyclic peptides

Data: CycPeptMPDB; original report Townsend et al. 2020, doi:10.26434/chemrxiv.13335941.v1.

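Lipid, pH, incubation time, direction and concentration are not recorded in the data file. The list need not hold all peptides of the study. Peptides that the database sets to -10, its floor, are left out.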

PAMPA is the parallel artificial membrane permeability assay, which has no cells and reads passive diffusion. P is given in units of 10^-6 cm/s (from log10 values with two decimals); larger means faster passage.

SMILES | PAMPA (10^-6 cm/s)
CCCN1CC(=O)N[C@@H](CC(C)C)C(=O)N(C)[C@H](CC(C)C)C(=O)N2CCC[C@H]2C(=O)N(C)[C@@H](CC(C)C)C(=O)N[C@@H](Cc2ccccc2)C(=O)N2CCC[C@@H]2C1=O | 7.6
CC(C)C[C@@H]1C(=O)N[C@@H](Cc2ccccc2)C(=O)N2CCC[C@H]2C(=O)N[C@@H](Cc2ccccc2)CC(=O)N(C)[C@@H](CC(C)C)C(=O)N(Cc2ccccc2)CC(=O)N2CCC[C@@H]2C(=O)N1C | 2.2
CCCN1CC(=O)N[C@@H](CC(C)C)C(=O)N(Cc2ccccc2)CC(=O)N2CCC[C@H]2C(=O)N(C)[C@@H](CC(C)C)C(=O)N[C@@H](Cc2ccccc2)C1=O | 13
CCCN1CC(=O)N[C@@H](CC(C)C)C(=O)N[C@@H](CC(C)C)C(=O)N2CCC[C@H]2C(=O)N[C@H](CC(C)C)C(=O)N[C@@H](Cc2ccccc2)C(=O)N2CCC[C@@H]2C1=O | 0.81
CC(C)C[C@@H]1NC(=O)[C@@H](CC(C)C)N(C)C(=O)[C@H](C)N(C)C(=O)[C@H]2CCCN2C(=O)[C@H](Cc2ccccc2)NC(=O)CN(Cc2ccccc2)C(=O)[C@H]2CCCN2C1=O | 3.1
CCCN1CC(=O)N(C)[C@@H](CC(C)C)C(=O)N(Cc2ccccc2)CC(=O)N2CCC[C@@H]2C(=O)N(C)[C@@H](CC(C)C)C(=O)N[C@@H](Cc2ccccc2)C1=O | 7.1
CC(C)C[C@@H]1NC(=O)[C@@H](C)N(C)C(=O)[C@@H]2CCCN2C(=O)[C@H](Cc2ccccc2)NC(=O)[C@H](CC(C)C)N(C)C(=O)[C@H]2CCCN2C(=O)[C@H](CC(C)C)N(C)C1=O | 7.4
CC(C)C[C@@H]1C(=O)N2CCC[C@H]2C(=O)N(C)[C@H](CC(C)C)C(=O)N[C@@H](Cc2ccccc2)C(=O)N2CCC[C@@H]2C(=O)N[C@@H](Cc2ccccc2)CC(=O)N(C)[C@@H](CC(C)C)C(=O)N1C | 3
CC(C)C[C@@H]1C(=O)N[C@@H](Cc2ccccc2)CC(=O)N2CCC[C@@H]2C(=O)N[C@H](CC(C)C)C(=O)N[C@@H](Cc2ccccc2)C(=O)N[C@H](C)C(=O)N1C | 1.5
CCCN1CC(=O)N[C@H](CC(C)C)C(=O)N[C@@H](CC(C)C)C(=O)N2CCC[C@@H]2C(=O)N[C@@H](CC(C)C)C(=O)N[C@@H](Cc2ccccc2)C1=O | 1
CC(C)C[C@@H]1NC(=O)C[C@H](Cc2ccccc2)NC(=O)[C@H](Cc2ccccc2)NC(=O)[C@H](CC(C)C)N(C)C(=O)[C@@H]2CCCN2C(=O)[C@@H](CC(C)C)N(C)C1=O | 6
CC(C)C[C@@H]1C(=O)N(Cc2ccccc2)CC(=O)N2CCC[C@@H]2C(=O)N[C@H](CC(C)C)C(=O)N[C@@H](Cc2ccccc2)C(=O)N2CCC[C@H]2C(=O)N[C@@H](C)C(=O)N1C | 1.1
CC(C)C[C@H]1NC(=O)[C@@H]2CCCN2C(=O)CN(Cc2ccccc2)C(=O)[C@H](CC(C)C)N(C)C(=O)[C@@H](C)NC(=O)[C@H](Cc2ccccc2)NC1=O | 1.6
CC(C)C[C@H]1NC(=O)[C@H]2CCCN2C(=O)[C@H](CC(C)C)N(C)C(=O)[C@@H](CC(C)C)NC(=O)[C@H](C)NC(=O)[C@H](Cc2ccccc2)NC1=O | 1.9
CCCN1CC(=O)N[C@H](CC(C)C)C(=O)N[C@@H](CC(C)C)C(=O)N2CCC[C@H]2C(=O)N[C@H](CC(C)C)C(=O)N[C@@H](Cc2ccccc2)C(=O)N2CCC[C@@H]2C1=O | 0.55
CCCN1CC(=O)N[C@H](CC(C)C)C(=O)N[C@H](CC(C)C)C(=O)N2CCC[C@H]2C(=O)N[C@H](CC(C)C)C(=O)N[C@@H](Cc2ccccc2)C(=O)N2CCC[C@H]2C1=O | 1.3
CC(C)C[C@@H]1C(=O)N2CCC[C@H]2C(=O)N(C)[C@H](CC(C)C)C(=O)N[C@@H](Cc2ccccc2)C(=O)N2CCC[C@H]2C(=O)N[C@H](C)C(=O)N(C)[C@H](CC(C)C)C(=O)N1C | 2.2
CC(C)C[C@@H]1C(=O)N[C@H](CC(C)C)C(=O)N2CCC[C@@H]2C(=O)N(C)[C@H](CC(C)C)C(=O)N[C@@H](Cc2ccccc2)C(=O)N2CCC[C@@H]2C(=O)N[C@@H](Cc2ccccc2)CC(=O)N1C | 4.7
CC(C)C[C@@H]1NC(=O)[C@H]2CCCN2C(=O)[C@H](CC(C)C)NC(=O)CN(Cc2ccccc2)C(=O)[C@H](C)NC(=O)[C@H](Cc2ccccc2)NC1=O | 0.91
CCCN1CC(=O)N(C)[C@H](CC(C)C)C(=O)N[C@@H](CC(C)C)C(=O)N2CCC[C@H]2C(=O)N(C)[C@H](CC(C)C)C(=O)N[C@@H](Cc2ccccc2)C1=O | 15
CCCN1CC(=O)N(C)[C@H](CC(C)C)C(=O)N[C@H](CC(C)C)C(=O)N2CCC[C@@H]2C(=O)N[C@@H](CC(C)C)C(=O)N[C@@H](Cc2ccccc2)C(=O)N2CCC[C@H]2C1=O | 0.38
CC(C)C[C@@H]1C(=O)N[C@H](CC(C)C)C(=O)N2CCC[C@H]2C(=O)N(C)[C@H](CC(C)C)C(=O)N[C@@H](Cc2ccccc2)C(=O)N2CCC[C@H]2C(=O)N(C)[C@@H](C)C(=O)N1C | 8.9
CC(C)C[C@@H]1NC(=O)[C@H](C)NC(=O)[C@H](Cc2ccccc2)NC(=O)[C@H](CC(C)C)N(C)C(=O)[C@H]2CCCN2C(=O)[C@@H](CC(C)C)N(C)C1=O | 7.8
CC(C)C[C@H]1C(=O)N[C@@H](Cc2ccccc2)CC(=O)N2CCC[C@H]2C(=O)N(C)[C@@H](CC(C)C)C(=O)N[C@@H](Cc2ccccc2)C(=O)N2CCC[C@@H]2C(=O)N(C)[C@H](C)C(=O)N1C | 4.7

The 4 highest values of PAMPA among the entries above:

SMILES | PAMPA (10^-6 cm/s)
CCCN1CC(=O)N(C)[C@H](CC(C)C)C(=O)N[C@@H](CC(C)C)C(=O)N2CCC[C@H]2C(=O)N(C)[C@H](CC(C)C)C(=O)N[C@@H](Cc2ccccc2)C1=O | 15
CCCN1CC(=O)N[C@@H](CC(C)C)C(=O)N(Cc2ccccc2)CC(=O)N2CCC[C@H]2C(=O)N(C)[C@@H](CC(C)C)C(=O)N[C@@H](Cc2ccccc2)C1=O | 13
CC(C)C[C@@H]1C(=O)N[C@H](CC(C)C)C(=O)N2CCC[C@H]2C(=O)N(C)[C@H](CC(C)C)C(=O)N[C@@H](Cc2ccccc2)C(=O)N2CCC[C@H]2C(=O)N(C)[C@@H](C)C(=O)N1C | 8.9
CC(C)C[C@@H]1NC(=O)[C@H](C)NC(=O)[C@H](Cc2ccccc2)NC(=O)[C@H](CC(C)C)N(C)C(=O)[C@H]2CCCN2C(=O)[C@@H](CC(C)C)N(C)C1=O | 7.8